Ab-14 light chain CDR variants: yeast mating affinities

Values reported by Li et al. 2023, doi:10.1038/s41467-023-39022-2 (FLAb copy).

Binding partner: SARS-CoV-2 spike HR2 peptide, sequence PDVDLGDISGINAS.

Parent: Ab-14, a human scFv built as VH, three GGGGS repeats, VL. Only the CDRs of the light chain vary.
VH: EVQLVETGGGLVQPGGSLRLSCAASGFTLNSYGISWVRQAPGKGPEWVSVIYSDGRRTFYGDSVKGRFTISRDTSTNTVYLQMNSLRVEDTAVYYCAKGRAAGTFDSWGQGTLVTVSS
VL: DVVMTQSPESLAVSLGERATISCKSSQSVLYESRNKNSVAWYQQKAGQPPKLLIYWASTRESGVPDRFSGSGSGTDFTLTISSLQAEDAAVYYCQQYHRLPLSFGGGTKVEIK

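Phage display of a naive human antibody library on the peptide gave the parent. The variants were designed computationally from a first round of random CDR variants and then made and measured. Several design methods are mixed in this list. AlphaSeq pools MATa yeast showing the antibodies with MATalpha yeast showing the peptide. Mating (16 h, 30 °C) was followed by selection of diploids and sequencing of their barcodes. Scores were corrected for input abundance and mapped to Kd with protein pairs of known affinity run in the same pool. There are six technical replicates.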

Each variant's VL is given in full.
Numbers give log10(Kd / nM), so 0 is 1 nM and 3 is 1 µM. Smaller is tighter.
Replicates are averaged; those with no signal do not enter the mean.
"ND" marks a missing value. The strain was present, yet no cells mated with the target were sequenced in that replicate, which points to weak or no binding.
The range of this assay differs from that of the first round, and the authors advise against merging the two.

VL | replicates, log10 nM | log10 Kd (nM), mean | signal with controls
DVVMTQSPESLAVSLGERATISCMVTQMAMTGMTNKRSVAWYQQKAGQPPKLLIYNATTREYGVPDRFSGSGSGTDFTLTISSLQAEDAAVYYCQQYHRLPLIFGGGTKVEIK | ND 2.01 0.89 2.13 1.18 1.22 | 1.48 | 0 of 18
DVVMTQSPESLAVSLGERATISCKLIQSVAMSTRNKDSIAWYQQKAGQPPKLLIYDNSTRESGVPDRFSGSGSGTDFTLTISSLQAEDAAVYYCQQYHRLPLSFGGGTKVEIK | 1.86 2.53 1.56 1.85 1.65 1.66 | 1.85 | 2 of 18 (2.26)
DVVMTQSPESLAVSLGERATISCKLDDSVLQESRNKNSVAWYQQKAGQPPKLLIYDASTRESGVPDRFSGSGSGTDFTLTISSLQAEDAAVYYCQQYHRLPLSFGGGTKVEIK | -0.05 -0.38 -0.42 -0.48 -0.54 -0.43 | -0.38 | 1 of 18 (5.32)
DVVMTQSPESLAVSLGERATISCIIDQLMYHGNKRANSIAWYQQKAGQPPKLLIYQASERLNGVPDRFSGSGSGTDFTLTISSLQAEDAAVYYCQQYHHLPLTFGGGTKVEIK | 1.01 1.33 0.55 1.90 1.26 0.95 | 1.17 | 0 of 18
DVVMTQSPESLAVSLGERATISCKLEQSWLYGSRNKNSVAWYQQKAGQPPKLLIYNASERERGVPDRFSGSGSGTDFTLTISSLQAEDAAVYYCQQYHRLPLSFGGGTKVEIK | -0.32 -0.29 -0.66 -0.49 -0.45 -0.17 | -0.40 | 0 of 18
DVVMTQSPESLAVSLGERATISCVMFGGLNFGNIEHQAIAWYQQKAGQPPKLLIYNVDVREKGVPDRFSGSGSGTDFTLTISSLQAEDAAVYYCQQYHRLPLQFGGGTKVEIK | -0.11 -0.15 -0.13 -0.42 -0.30 -0.06 | -0.20 | 2 of 18 (2.91)
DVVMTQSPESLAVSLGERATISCKLSTSVDYEDRNCNAVAWYQQKAGQPPKLLIYAASTREEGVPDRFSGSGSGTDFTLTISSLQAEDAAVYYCQQYHRLPLSFGGGTKVEIK | 0.20 0.38 -0.10 -0.01 -0.09 0.27 | 0.11 | 1 of 18 (3.57)
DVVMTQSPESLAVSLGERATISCMLSQMTGLGMKAENSVAWYQQKAGQPPKLLIYQASMRFNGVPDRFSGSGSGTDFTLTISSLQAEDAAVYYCQQYHRLPLIFGGGTKVEIK | 0.65 0.89 0.60 1.23 0.83 1.29 | 0.91 | 2 of 18 (2.44)
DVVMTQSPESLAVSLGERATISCKLLQEVQGRSQNRNSVAWYQQKAGQPPKLLIYHNSTREDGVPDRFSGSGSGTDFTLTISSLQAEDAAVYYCQQYDRLPLEFGGGTKVEIK | 2.62 ND ND 3.19 2.94 ND | 2.92 | 0 of 18
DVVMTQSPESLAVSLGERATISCILSQMMLAAGNKHSSVAWYQQKAGQPPKLLIYQANNREDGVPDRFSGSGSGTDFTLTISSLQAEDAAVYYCQQYHRLPLSFGGGTKVEIK | 1.04 1.18 1.16 0.64 1.04 1.25 | 1.05 | 0 of 18
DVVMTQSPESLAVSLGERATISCFMEMDFQENSGRGSSIAWYQQKAGQPPKLLIYSEEVKTRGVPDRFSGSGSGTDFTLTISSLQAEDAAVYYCQHYGRLPLSFGGGTKVEIK | ND ND ND ND ND ND | ND | 0 of 18
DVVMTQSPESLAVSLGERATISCMISDLTMYGSRTKNSVAWYQQKAGQPPKLLIYDLSTRGSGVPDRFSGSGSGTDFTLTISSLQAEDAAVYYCQQYHRLPLSFGGGTKVEIK | 0.70 0.60 0.68 0.37 0.47 0.91 | 0.62 | 1 of 18 (2.16)
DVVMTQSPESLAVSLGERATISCKSSQSVMYESRNKNSVAWYQQKAGQPPKLLIYWASTRISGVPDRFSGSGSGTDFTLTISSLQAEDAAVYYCQQYHRLPLSFGGGTKVEIK | ND ND 1.94 ND ND ND | 1.94 | 0 of 18
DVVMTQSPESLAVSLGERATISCHMSFLTLGGMRQKNSVAWYQQKAGQPPKLLIYQMTTRENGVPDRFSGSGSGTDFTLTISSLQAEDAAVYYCQQYDRLPLIFGGGTKVEIK | 0.98 1.17 0.53 0.65 0.90 1.23 | 0.91 | 2 of 18 (2.06)
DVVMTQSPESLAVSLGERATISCTVSQVMGMLSHNKNSVAWYQQKAGQPPKLLIYDMNTRGSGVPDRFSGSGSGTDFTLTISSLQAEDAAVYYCQQYDRLPLSFGGGTKVEIK | 0.49 0.58 0.12 0.39 0.16 0.67 | 0.40 | 0 of 18
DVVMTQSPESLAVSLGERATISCQVQEEALGGNGYTSNIAWYQQKAGQPPKLLIYGQSVAMPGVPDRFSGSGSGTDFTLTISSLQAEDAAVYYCQQYDRLPLDFGGGTKVEIK | 0.69 -0.28 -0.28 -0.14 -0.25 -0.05 | -0.05 | 1 of 18 (2.81)
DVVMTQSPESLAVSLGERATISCKINYMGEHFSTNHSAIAWYQQKAGQPPKLLIYQASTREQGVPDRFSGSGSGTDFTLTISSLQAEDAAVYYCQQYHRLPISFGGGTKVEIK | 0.94 0.70 0.72 0.91 0.51 0.68 | 0.74 | 0 of 18
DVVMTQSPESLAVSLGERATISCKVSMLHDYESRAKNSVAWYQQKAGQPPKLLIYQASTRESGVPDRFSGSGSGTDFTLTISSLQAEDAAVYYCQDYHRLPLSFGGGTKVEIK | 0.47 0.35 0.23 0.26 0.44 0.29 | 0.34 | 2 of 18 (3.05)

The closing 2 entries, repeated:

VL | replicates, log10 nM | log10 Kd (nM), mean | signal with controls
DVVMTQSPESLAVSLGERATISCKINYMGEHFSTNHSAIAWYQQKAGQPPKLLIYQASTREQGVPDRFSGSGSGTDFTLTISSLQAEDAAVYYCQQYHRLPISFGGGTKVEIK | 0.94 0.70 0.72 0.91 0.51 0.68 | 0.74 | 0 of 18
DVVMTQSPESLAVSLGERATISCKVSMLHDYESRAKNSVAWYQQKAGQPPKLLIYQASTRESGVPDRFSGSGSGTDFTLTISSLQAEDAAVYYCQDYHRLPLSFGGGTKVEIK | 0.47 0.35 0.23 0.26 0.44 0.29 | 0.34 | 2 of 18 (3.05)

In the paper, a design with two or fewer of six values counts as a poor binder.
As a blank, each scFv also met three strains without target: over all light chain designs, 4% of these pairings were detected, typically at 2.64 and seldom below 1.59. Also given: how often the same scFv was detected with the empty control strains, with their mean in brackets.